By IC50 is commonly meant the concentration that gives 50% inhibition. Read a high IC50 as weaker potency in that assay.

By UniProt entry, the sequences of proteins in these tests, tags left out.
UniProt P23458, whole entry, species assumed: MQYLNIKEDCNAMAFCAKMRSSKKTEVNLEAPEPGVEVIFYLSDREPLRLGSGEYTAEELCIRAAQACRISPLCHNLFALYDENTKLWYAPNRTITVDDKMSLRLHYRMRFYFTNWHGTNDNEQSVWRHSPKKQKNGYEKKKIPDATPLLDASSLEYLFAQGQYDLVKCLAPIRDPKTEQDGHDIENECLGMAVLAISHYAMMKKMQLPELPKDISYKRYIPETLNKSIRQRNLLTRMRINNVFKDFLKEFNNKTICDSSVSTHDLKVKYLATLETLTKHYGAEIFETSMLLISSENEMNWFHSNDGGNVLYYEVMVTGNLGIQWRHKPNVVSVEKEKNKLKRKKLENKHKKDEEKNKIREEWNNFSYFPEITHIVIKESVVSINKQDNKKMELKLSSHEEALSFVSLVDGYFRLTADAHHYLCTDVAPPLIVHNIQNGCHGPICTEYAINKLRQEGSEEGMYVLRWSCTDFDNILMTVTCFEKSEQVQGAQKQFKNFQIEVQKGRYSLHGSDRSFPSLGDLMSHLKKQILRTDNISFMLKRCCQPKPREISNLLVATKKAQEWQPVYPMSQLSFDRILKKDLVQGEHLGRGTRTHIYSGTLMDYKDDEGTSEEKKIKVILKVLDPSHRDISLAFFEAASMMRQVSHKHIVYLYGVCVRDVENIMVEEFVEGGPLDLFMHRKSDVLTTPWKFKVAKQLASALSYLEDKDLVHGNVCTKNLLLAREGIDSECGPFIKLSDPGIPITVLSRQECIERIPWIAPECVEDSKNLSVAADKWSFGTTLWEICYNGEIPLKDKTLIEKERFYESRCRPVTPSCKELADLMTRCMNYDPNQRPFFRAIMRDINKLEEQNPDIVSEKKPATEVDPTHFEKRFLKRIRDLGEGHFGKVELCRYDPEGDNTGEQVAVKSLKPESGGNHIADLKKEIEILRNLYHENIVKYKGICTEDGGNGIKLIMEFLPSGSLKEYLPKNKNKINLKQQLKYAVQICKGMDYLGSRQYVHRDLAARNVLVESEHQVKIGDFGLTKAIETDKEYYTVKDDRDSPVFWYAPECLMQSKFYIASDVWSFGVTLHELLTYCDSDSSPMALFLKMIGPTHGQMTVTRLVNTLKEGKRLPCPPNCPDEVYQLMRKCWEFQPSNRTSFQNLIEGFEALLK

We go through 1 compound from patent US10336759B2, “Salts and processes of preparing a PI3K inhibitor” (Incyte Corporation, priority 2015, dated 2019).

Some results are limits rather than exact numbers.

This test concerns the target JAK1 (Homo sapiens (Human), UniProt P23458). The experiment in a line: Assay A, JAK1 IC50 at 1 mM ATP. In kind it is biochemical. The following applies: method of Assay A at 1 mM ATP; #3 data for enantiomer 1, #14 data for enantiomer 2.

`CN(C)Cc1cc(F)cc(OC2CCN(CC(CC#N)n3cc(-c4ncnc5[nH]ccc45)cn3)CC2)c1` (single isomer, unassigned) [Example 14, 4-(4-{3-[(dimethylamino)methyl]-5-fluorophenoxy}piperidin-1-yl)-3-[4-(7H-pyrrolo[2,3-d]pyrimidin-4-yl)-1H-pyrazol-1-yl]butanenitrile]: the IC50 was less than 10 nM.
